From patent US11767344B2, “Pharmaceutically acceptable salts of polypeptides and methods of inhibiting the interaction between psd-95 and n-methyl-d-aspartic acid receptor (nmdar)” (BIOCELLS (BEIJING) BIOTECH CO., LTD., priority 2017, dated 2023)

Experiments:
[1] = Stability analysis of P5 salt powders (HPLC area normalization); conditions: powder
[2] = Stability analysis of P5 salt solutions (HPLC area normalization); conditions: solution

YGRKKRRQRRRYEKLLDTEI [P5-Ac]
relative stability order ([1]; high humidity): trifluoroacetate>hydrochloride>acetate
relative stability order ([1]; irradiation + ultraviolet): trifluoroacetate>acetate>hydrochloride
relative stability order ([2]; high temperature): acetate>hydrochloride
relative stability order ([2]; irradiation): acetate>trifluoroacetate>hydrochloride

Ends that are not written are not given here.
